Results published in patent US9988392B2, “7-beta-alkyl analogs of orvinols” (dated 2018).

Amino acid sequences for entries named in this document (tags omitted).
UniProt P35372, whole entry: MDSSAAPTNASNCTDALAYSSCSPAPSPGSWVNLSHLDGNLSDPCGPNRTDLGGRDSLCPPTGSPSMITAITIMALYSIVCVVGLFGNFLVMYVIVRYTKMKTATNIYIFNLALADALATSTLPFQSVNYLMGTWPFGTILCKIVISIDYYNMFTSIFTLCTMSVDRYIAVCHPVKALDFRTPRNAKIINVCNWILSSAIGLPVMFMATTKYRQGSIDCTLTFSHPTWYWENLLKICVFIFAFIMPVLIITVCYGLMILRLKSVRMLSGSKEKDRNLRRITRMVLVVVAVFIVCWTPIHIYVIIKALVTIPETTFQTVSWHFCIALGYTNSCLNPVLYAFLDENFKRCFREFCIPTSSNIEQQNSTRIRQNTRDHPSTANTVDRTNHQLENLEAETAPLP
UniProt P41145, whole entry: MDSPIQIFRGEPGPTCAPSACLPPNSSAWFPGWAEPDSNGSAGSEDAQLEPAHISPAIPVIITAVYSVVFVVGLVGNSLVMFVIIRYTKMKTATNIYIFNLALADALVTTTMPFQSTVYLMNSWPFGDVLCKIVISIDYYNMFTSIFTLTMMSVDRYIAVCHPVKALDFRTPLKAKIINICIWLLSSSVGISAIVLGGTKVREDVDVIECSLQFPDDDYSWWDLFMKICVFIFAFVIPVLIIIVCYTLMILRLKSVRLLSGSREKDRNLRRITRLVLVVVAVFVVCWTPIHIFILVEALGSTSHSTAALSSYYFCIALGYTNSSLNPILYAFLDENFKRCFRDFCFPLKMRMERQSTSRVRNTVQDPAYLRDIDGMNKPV

Columns and labels:
[1] = biological target: T1, μ-opioid receptor (Homo sapiens (Human), UniProt P35372); experiment: μ-opioid receptor [35S]GTPγS functional assay, HEK-293 cells; conditions: for μ Emax (%): maximal effect relative to DAMGO; for EC50: read-out: μ EC50, μ GTP EC50
[2] = biological target: T1, μ-opioid receptor; experiment: μ-opioid receptor [35S]GTPγS functional assay, U-2 OS cells
[3] = biological target: κ-opioid receptor (Homo sapiens (Human), UniProt P41145); experiment: κ-opioid receptor [35S]GTPγS functional assay, U-2 OS cells

Row | Substance | μ Emax (%) ([1]; HEK-293 cells) | EC50 ([1]; membranes from HEK-293 cells) | EC50 ([1]; HEK-293 cells, μM) | μ Emax (%) ([2]; maximal effect relative to DAMGO, U-2 OS cells) | EC50 ([2]; read-out: μ EC50, μ GTP EC50, membranes from U-2 OS cells) | κ Emax (%) ([3]; maximal effect relative to U69,593, U-2 OS cells) | EC50 ([3]; read-out: κ EC50, κ GTP EC50, membranes from U-2 OS cells)
1 | (4R,4aS,6R,7R,7aR,12bS)-6-((benzylamino)methyl)-3-(cyclopropylmethyl)-7-methoxy-1,2,3,4,5,6,7,7a-octahydro-4a,7-ethano-4,12-methanobenzofuro[3,2-e]isoquinolin-9-ol | 28.7 ± 4.41% | 0.00339 µM |  |  |  |  | 
2 | (4R,4aS,6R,7R,7aR,12bS)-3-(cyclopropylmethyl)-6-((furan-3-ylmethoxy)methyl)-7-methoxy-6-methyl-1,2,3,4,5,6,7,7a-octahydro-4a,7-ethano-4,12-methanobenzofuro[3,2-e]isoquinoline | 1.50% |  | > 20 µM | 68.3 ± 0.88% | 0.13 nM | 105.0 ± 5.69% | 0.037 nM

Only a part of the results on these compounds is given; other tests are left out.
